# Literature values, collected in patent US20140329706A1, “AFFINITY TAGS, AND RELATED AFFINITY LIGANDS, ENGINEERED PROTEINS, MODIFIED SUPPORTS, COMPOSITIONS, METHODS AND SYSTEMS” (CALIFORNIA INSTITUTE OF TECHNOLOGY, priority 2013, published 2014).
# Sequences of proteins named here, by UniProt entry; tags and fusion partners are left off. Residues count along the entry.
# UniProt P31016, 313-393 limits assumed: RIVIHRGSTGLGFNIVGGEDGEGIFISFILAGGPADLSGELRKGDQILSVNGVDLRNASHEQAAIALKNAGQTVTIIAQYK
# Biological target: T1, PSD-95 PDZ3 domain (Rattus norvegicus, UniProt P31016)
# T1 construct: between the PSD-95 PDZ3 domain and the C-terminal six amino acids of CRIPT (46,47)
# Conditions: PSD-95 PDZ3 domain and C-terminal six amino acids of CRIPT; refs (46,47); cited from earlier work
substance,measurement,value
"YKQTSV [C-terminal six amino acids of CRIPT, six C-terminal amino acids of the neuronal protein CRIPT, PDZ3 ligand]",Kd,~760 nM
